Test system: CHO DG44 host cell line
Assay: Batch culture of antibody producing CHO clone, cell growth
Type: cell-based, Chinese hamster
Details: Example 4, FIG. 4, in the presence of 40 mg/l spermine
Description: Transfectants were amplified using MTX in culture medium.
In this way cells were cultured in several passages.
The basal medium further comprises fatty acids and nucleotides.
Cells were cultured for 1 to 4 days. […] Thus, culture duration was approximately 10 to 18 days.
The cell pellet was resuspended in the corresponding media.

iron (III) pyrophosphate hydrate
tolerability of extremely high iron concentration to cells: tolerable

Reference: patent US8637312B2, “Mammalian culture media with polyamine and iron” (Cellca GmbH, priority 2008, dated 2014)
